Assay results reported in patent publication US8512965B2, “Methods of identifying ligands to sour-taste receptors comprising PKD1L3 and PKDPKD2L1” (Duke University, priority 2006, dated 2013).

Chains of the proteins cited; added tags and fusions are not shown. Lines headed by an entry give the natural chain unless they say otherwise; changes in a name come on top.
UniProt A2A259: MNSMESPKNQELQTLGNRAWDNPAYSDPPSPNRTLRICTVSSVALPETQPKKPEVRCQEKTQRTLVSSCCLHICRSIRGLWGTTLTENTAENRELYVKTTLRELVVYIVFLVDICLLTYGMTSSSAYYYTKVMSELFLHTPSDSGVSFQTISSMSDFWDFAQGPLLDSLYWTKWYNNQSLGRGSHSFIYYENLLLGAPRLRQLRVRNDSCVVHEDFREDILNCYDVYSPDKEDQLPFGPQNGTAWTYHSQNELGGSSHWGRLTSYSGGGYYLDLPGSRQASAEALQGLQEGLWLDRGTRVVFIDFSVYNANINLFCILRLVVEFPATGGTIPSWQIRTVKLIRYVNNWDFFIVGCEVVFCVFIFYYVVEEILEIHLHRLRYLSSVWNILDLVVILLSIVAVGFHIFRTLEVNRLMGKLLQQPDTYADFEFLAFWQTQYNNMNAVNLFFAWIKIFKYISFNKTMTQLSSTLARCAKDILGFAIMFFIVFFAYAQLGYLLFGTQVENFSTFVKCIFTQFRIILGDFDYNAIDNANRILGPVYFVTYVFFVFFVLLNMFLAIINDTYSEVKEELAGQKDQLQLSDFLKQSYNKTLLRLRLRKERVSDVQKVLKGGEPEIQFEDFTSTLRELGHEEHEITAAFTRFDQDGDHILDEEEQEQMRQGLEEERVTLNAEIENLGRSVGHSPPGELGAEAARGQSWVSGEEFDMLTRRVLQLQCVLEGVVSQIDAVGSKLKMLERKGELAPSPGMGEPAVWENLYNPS
UniProt Q2EG98: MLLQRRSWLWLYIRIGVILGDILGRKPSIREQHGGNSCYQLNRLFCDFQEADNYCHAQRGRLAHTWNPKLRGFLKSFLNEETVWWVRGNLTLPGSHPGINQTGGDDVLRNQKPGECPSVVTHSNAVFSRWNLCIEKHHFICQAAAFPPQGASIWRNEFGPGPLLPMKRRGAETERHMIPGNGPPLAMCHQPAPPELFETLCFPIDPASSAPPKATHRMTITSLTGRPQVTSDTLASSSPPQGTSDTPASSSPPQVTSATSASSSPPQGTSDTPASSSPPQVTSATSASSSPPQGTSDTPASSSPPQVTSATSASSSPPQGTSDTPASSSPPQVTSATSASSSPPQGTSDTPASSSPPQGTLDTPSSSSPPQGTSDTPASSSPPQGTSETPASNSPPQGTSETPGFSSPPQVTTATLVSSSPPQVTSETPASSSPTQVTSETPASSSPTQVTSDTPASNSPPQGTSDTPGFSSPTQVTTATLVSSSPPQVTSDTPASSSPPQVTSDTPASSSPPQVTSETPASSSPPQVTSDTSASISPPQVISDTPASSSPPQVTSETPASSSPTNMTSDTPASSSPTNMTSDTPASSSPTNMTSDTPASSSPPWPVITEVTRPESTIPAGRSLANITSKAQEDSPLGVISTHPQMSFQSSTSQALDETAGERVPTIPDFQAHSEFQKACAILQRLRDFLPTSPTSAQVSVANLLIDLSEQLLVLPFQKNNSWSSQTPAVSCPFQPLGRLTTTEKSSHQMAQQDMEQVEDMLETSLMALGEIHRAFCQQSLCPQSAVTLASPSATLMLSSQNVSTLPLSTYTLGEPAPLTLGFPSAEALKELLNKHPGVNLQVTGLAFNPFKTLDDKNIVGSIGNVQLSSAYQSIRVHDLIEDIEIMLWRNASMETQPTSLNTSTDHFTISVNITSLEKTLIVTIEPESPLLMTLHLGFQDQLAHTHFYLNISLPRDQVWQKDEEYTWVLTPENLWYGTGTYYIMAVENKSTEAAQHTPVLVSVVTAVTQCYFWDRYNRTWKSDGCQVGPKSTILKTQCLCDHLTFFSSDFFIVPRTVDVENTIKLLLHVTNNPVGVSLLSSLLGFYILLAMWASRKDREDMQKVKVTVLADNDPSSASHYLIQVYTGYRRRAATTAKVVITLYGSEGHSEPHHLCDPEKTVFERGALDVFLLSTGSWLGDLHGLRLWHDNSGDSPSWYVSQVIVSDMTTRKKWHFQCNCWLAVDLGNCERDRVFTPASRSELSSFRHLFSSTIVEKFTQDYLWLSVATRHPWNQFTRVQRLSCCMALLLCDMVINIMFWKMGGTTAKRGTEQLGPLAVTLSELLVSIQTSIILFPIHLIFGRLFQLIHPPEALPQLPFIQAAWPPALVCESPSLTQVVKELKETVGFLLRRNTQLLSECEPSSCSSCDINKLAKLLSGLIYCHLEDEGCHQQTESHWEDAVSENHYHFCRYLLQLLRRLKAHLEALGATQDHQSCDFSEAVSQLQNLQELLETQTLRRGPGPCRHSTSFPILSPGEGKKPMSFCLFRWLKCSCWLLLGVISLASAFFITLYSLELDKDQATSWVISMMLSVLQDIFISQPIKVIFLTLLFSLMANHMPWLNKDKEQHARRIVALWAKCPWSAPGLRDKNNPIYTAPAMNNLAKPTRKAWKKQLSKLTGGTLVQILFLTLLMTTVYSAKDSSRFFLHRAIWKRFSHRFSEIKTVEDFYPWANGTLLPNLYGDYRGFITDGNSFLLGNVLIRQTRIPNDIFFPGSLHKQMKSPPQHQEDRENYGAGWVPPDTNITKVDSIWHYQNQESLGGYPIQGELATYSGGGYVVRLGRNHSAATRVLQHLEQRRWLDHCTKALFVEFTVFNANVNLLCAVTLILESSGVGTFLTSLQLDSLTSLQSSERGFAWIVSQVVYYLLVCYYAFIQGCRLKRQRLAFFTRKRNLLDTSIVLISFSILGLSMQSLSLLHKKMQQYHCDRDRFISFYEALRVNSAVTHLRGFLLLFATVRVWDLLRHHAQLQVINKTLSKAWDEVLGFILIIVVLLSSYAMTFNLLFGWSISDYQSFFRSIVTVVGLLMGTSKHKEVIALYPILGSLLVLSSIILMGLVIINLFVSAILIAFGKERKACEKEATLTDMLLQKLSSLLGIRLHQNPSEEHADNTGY

Target: PKD1L3/PKD2L1 (Mus musculus, UniProt A2A259+Q2EG98, I1053S/I114V/I482V/L203V/Q202H/Y438D)
Experiment: Calcium imaging (fluo-4/fura-red) of HEK293T cells transiently co-expressing PKD1L3 and PKD2L1
Type: cell-based, murine
Settings: cells expressing both PKD1L3 and PKD2L1; citric acid 25 mM, pH 2.6; hydrochloric acid at the same pH

I-glutamate
calcium response upon stimulation: did not respond
